{"sequences": {"note": "Sequences of proteins named here, by UniProt entry; tags and fusion partners are left off. A change or cut given only in a name is not applied to a line headed by its entry.", "UniProt P00915": "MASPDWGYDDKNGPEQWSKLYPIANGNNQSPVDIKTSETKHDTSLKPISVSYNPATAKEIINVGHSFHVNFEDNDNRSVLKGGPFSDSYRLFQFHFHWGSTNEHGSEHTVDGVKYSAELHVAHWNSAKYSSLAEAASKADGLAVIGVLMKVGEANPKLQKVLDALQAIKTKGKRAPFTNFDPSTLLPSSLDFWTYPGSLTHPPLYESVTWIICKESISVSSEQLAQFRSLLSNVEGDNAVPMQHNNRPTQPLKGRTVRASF"}, "source": "ChEMBL document CHEMBL1641504", "about": "“Characterization and anions inhibition studies of an α-carbonic anhydrase from the teleost fish Dicentrarchus labrax” (Bioorg Med Chem, 2011)", "biological_target": "Carbonic anhydrase 1 (Homo sapiens, UniProt P00915)"}
{"smiles": "[F-].[K+]", "note": "[POTASSIUM FLUORIDE]", "values": [{"measurement": "Ki", "result": "> 300", "unit": "mM"}]}
